Data as given in US5030634A, “10-deazaaminopterin: a new arthritis remittive drug” (priority 1990, dated 1991).
“Also recorded” adds a separate entry of the source.

System: rheumatoid arthritis patients
Test: Double-blind clinical trial of 10-deazaaminopterin versus methotrexate in rheumatoid arthritis: efficacy evaluation
Assay type: in vivo, human
Details: double blind trial in humans

For `Nc1nc(N)c2nc(CCc3ccc(C(=O)NC(CCC(=O)O)C(=O)O)cc3)cnc2n1` (stereo not shown) [10-deazaaminopterin], the “Efficacy versus methotrexate in rheumatoid arthritis (in words)” value was “at least equally effective in all respects to methotrexate in the treatment of rheumatoid arthritis, and clearly superior to methotrexate in controlling pain, joint stiffness and in improving grip strength; also recorded: equally effective as methotrexate and in certain clinical parameters such as grip strength, pain and morning stiffness superior to methotrexate”.
